This is an account of results in patent publication US5736376A, “Recombinant endothelin converting enzyme-2 and its use in ECE inhibitor screening” (Board of Regents, The University of Texas System, priority 1995, dated 1998).

The target in assay [1] is T1, ECE-1 (Bos taurus, UniProt P42891).
T1 construct: made in house
T1 sequence (P42891 1-754): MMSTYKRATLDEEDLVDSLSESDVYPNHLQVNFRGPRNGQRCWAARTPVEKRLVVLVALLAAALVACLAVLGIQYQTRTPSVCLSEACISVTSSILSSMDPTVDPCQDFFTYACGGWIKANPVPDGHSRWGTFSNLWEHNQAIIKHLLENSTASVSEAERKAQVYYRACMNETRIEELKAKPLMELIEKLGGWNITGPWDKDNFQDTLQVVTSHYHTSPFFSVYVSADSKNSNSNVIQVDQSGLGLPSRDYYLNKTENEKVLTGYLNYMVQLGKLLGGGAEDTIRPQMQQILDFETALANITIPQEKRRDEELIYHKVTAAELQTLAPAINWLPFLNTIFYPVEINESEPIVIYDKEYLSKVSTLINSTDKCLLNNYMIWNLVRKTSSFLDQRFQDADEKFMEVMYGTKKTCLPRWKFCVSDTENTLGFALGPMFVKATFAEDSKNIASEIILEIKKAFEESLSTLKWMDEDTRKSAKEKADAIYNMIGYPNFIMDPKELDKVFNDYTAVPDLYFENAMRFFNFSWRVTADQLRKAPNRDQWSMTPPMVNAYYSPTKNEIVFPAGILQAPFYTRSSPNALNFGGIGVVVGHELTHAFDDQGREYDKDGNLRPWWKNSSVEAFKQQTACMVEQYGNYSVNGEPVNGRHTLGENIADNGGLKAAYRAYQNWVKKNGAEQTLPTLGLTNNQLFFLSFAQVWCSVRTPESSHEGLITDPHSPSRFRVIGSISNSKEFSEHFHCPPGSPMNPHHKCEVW
The experiment in a line: Coculture of CHO/ECE-1 and CHO/preproET-1 cells: cleavage of exogenously supplied big ET-1. The format is cell-based, bovine. As to conditions: coculture 24 h with CHO/preproET-1; read-out: IC50, production of mature ET-1, CHO/ECE-1 coculture.

Assay [2] has as its target T1, ECE-1. Nature of the assay: Protease inhibitor assay of ECE-1, solubilized CHO/ECE-1 membranes, big ET-1 conversion, pH 6.8. Type of assay: biochemical, bovine. The note with it: in vitro.
For assay [3], the target named is T1, ECE-1. The experiment in a line: Double-transfection live cell assay: CHO/ECE-1 cells with preproET-1. The note with it: parallel double-transfection assay. Type of assay: cell-based, bovine. As for the experimental part: To examine whether ECE-2 can convert big ET-1 in a physiological context in transfected cells, a double-transfection assay was used (Xu et al., 1994). CHO/ECE-2 cells and untransfected CHO cells were transiently transfected in parallel with a preproET-1 construct, and mature ET-1 secreted from these cells into the medium was determined by EIA.
These observations indicate that ECE-2 is processing big ET-1 inside the cells, where these inhibitors have limited access.
CHO-K1 cells were cultured as described (Xu et al., 1994). Since many batches of tissue culture-grade trypsin preparations contained high levels of metalloprotease contaminants with an ECE-like activity, a highly purified crystallized preparation of trypsin (Sigma, Catalog No. T7418) was dissolved in phosphate-buffered saline at 0.013% (w/v) and used for all trypsinization procedures. The coding region of bovine ECE-2 cDNA was subcloned into pME18Sf- expression vector (Sakamoto et al., 1993). Stable transfection of CHO cells and isolation of the transfectant clones, as well as transient transfection of human preproET-1 cDNA was performed as described (Xu et al., 1994). Twelve hours after the transient transfection, cells were refed with fresh medium with or without ECE inhibitors. The medium was conditioned for an additional 12 h and directly subjected to enzyme immunoassay (EIA) for mature ET-1 (Suzuki et al., 1989).

pIC50: −log10 of the molar value. Some results are limits rather than exact numbers.

Consider `CC(C)C[C@H](NP(=O)(O)O[C@@H]1O[C@@H](C)[C@H](O)[C@@H](O)[C@H]1O)C(=O)N[C@@H](Cc1c[nH]c2ccccc12)C(=O)O` [Phosphoramidon], for which the results for the pIC50 in assay [1], in assay [2] and in assay [3] were about 6.00, 6.00 and under 3.70, respectively.
